The values below come from PMC8200842 (The Journal of General Physiology, 2021).

The chains behind the UniProt entries cited, without tags or fusion partners. Where a name states a change or a piece, a line headed by the entry shows the natural chain unless it says otherwise.
UniProt P30878: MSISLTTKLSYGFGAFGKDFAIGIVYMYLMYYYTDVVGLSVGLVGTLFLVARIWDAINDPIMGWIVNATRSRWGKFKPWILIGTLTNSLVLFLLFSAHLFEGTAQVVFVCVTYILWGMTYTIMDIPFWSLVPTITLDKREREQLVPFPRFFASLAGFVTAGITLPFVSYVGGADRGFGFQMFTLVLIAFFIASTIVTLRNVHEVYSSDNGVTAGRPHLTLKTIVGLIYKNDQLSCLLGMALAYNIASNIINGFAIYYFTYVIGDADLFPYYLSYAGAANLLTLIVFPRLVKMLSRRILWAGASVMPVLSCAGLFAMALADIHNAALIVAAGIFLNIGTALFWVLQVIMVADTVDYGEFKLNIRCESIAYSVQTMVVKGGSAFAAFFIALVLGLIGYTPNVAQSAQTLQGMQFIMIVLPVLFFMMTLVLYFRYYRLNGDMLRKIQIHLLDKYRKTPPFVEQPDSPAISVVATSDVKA

This assay has as its target Salmonella typhimurium melibiose permease MelB (MelBSt), wild type (Salmonella typhimurium, UniProt P30878 1-476). Kind of assay: ITC. Background: Isothermal titration calorimetry measures the heat released or taken up as one component is titrated into another.

B1: E. coli glucose-specific phosphotransferase EIIA^Glc, unphosphorylated form (natural protein)
chain: MGLFDKLKSLVSDDKKDTGTIEIIAPLSGEIVNIEDVPDVVFAEKIVGDGIAIKPTGNKMVAPVDGTIGKIFETNHAFSIESDSGVELFVHFGIDTVELKGEGFKRIAEEGQRVKVGDTVIEFDLPLLEEKAKSTLTPVVISNMDEIKELIKLSGSVTVGETPVIRIKK
As a reminder, the Kd is the concentration at which binding is half-saturated. The molecule B1 came in with a Kd of 4.31 µM.
